Reference: patent US11077209B2, “Use of cerebral nitric oxide donors in the assessment of the extent of brain dysfunction following injury” (OXFORD UNIVERSITY INNOVATION LIMITED, priority 2016, dated 2021)
Where two headings read alike, the source gives them in different places.

Key:
[1] = test system: patients after severe aneurysmal SAH (WFNS grade 3, 4 or 5); details: for percentage change in relative alpha power, median / percentage change in relative delta power, median: (during infusion-baseline)/baseline x100; for mean alpha/delta ratio (ADR) with sodium nitrite: 10 mcg/kg/min iv for one hour, linear mixed effects model
Excerpt: Patients aged 18-80 years admitted to the Neurosciences Intensive Care Unit (NICU) at the John Radcliffe Hospital, Oxford after having suffered severe aneurysmal SAH (WFNS grade 3, 4 or 5 at time of presentation) were eligible for inclusion in the study. There were no specific selection criteria apart from grade of SAH, and the absence of any exclusion criteria (see below).
Following definitive endovascular aneurysm treatment, each patient underwent a two hour period of continuous EEG monitoring (Porti 7 system, Twente Medical Systems International) on one occasion as soon as was practically possible after endovascular securing of the aneurysm.
Sedative drug levels, muscle relaxants and vasopressors were documented and changes in infusion rates were minimised for the duration of the recording.
We used a simplified EEG montage that aimed for compromise between stable maintenance of recording and full coverage of all vascular territories. Consequently, 7-13 unipolar EEG electrodes (depending on the presence of external ventricular drains and intracranial pressure (ICP) monitors) at the following positions defined according to the international 10-20 system: Cz, Fz, Pz, Fp1, Fp2, F3, F4, P3, P4, T3, T4, O1, O2. EEG data were digitized at a sampling rate of 2048 Hz, with a high pass filter of 0.5 Hz and a low pass filter of 30 Hz.
Each surviving patient was followed up at three to six months post-rupture. Telephone follow up was performed for patients who were unable to attend hospital due to their clinical status. Primary outcome was measured by the presence or absence of delayed ischemia. Long term outcome was assessed by modified Rankin scale at 3 months, via structured standardised questions in person or by telephone. The modified Rankin scale, is a commonly used grading system that measures the degree of disability or dependence in the daily activities of people who have suffered a neurological insult. Good outcome is defined as a score of 0-2, whereas poor outcome is defined as ≥3.
Inc.) code and the EEGLAB v13.4.3b analysis toolbox. Datasets were re-referenced to the average of bilateral mastoid reference electrodes and band pass filtered from 0.5 to 15 Hz using a linear finite impulse response (FIR) filter. Each EEG recording was visually inspected and artefacts were manually removed. Channels showing evidence of excessive amounts of noise were removed from each recording.
Spectral analysis was carried out using FieldTrip, a MATLAB software toolbox for EEG analysis. Data was windowed into 30-second segments that overlapped by 50%. Time-frequency analysis was performed using a multi-taper spectral estimation using discrete prolate spheroidal (Slepian) sequences with 14 tapers, and fast Fourier transform algorithm for each electrode channel. Five 60-second epochs were selected randomly from the first (baseline) and last thirty minutes of the recording (during infusion). The epochs were separated by at least 60 seconds to avoid autocorrelation. The corresponding frequency distribution in each epoch was identified, which enabled determination of power values in the following frequency bands: delta 1-4 Hz, alpha 8-12 Hz and total low frequency power 1-15 Hz.
Statistical analysis was carried out using R and the analysis package nlme. We applied a two level linear mixed effects multilevel model to the data to allow for within patient correlation due to repeated measures on each patient over time. […] A qqnorm plot was used to identify any outliers and these were subsequently eliminated from the model. Goodness of fit was assessed via Shapiro-Wilk normality tests on fixed and random effect residuals, and calculation of R^2 for the model.

humans suffering SAH = details: cited from earlier work
[2] = poor outcome patients (mRS >=3)

**Q.** What does the source list for `O=NO` [sodium nitrite]?
**A.** post infusion relative alpha power, median ([1]; good outcome group, baseline median 0.10): 0.14 uV^2/Hz; during-infusion relative delta power, median ([1]; good outcome patients (mRS 0-2 at 3 months), baseline median 2.88): 2.63 uV^2/Hz; percentage change in relative alpha power, median ([1]; good outcome): increases; percentage change in relative delta power, median ([1]; good outcome): decreases; percentage change in alpha/delta ratio (ADR), FIG. 1 ([1]; patients that did not develop DCI): increases overall; mean alpha/delta ratio (ADR) with sodium nitrite ([1]; patients that did not get DCI, baseline mean ADR 0.033): 0.055; percentage change in alpha/delta ratio (ADR), FIG. 1 ([1]; patients that went on to develop DCI): decrease; mean alpha/delta ratio (ADR) with sodium nitrite ([1]; patients who subsequently developed DCI, baseline mean ADR 0.056): 0.0050; baseline versus during infusion relative alpha power [1, 2]: no significant differences; baseline versus during infusion relative delta power [1, 2]: no significant differences; percentage change in relative alpha power, median ([1]; poor outcome): no significant differences; percentage change in relative delta power, median ([1]; poor outcome): no significant differences; effects on systemic blood pressure, safety profile (humans suffering SAH): minimal effects; toxicity, safety profile of intravenous sodium nitrite (humans suffering SAH): low toxicity
